The values that follow come from PMC6372279 (eLife, 2019).

Protein sequences, listed by entry. Tags and fused reporters are not part of them. Residues count along the entry.
UniProt P06213, 28-758 limits assumed: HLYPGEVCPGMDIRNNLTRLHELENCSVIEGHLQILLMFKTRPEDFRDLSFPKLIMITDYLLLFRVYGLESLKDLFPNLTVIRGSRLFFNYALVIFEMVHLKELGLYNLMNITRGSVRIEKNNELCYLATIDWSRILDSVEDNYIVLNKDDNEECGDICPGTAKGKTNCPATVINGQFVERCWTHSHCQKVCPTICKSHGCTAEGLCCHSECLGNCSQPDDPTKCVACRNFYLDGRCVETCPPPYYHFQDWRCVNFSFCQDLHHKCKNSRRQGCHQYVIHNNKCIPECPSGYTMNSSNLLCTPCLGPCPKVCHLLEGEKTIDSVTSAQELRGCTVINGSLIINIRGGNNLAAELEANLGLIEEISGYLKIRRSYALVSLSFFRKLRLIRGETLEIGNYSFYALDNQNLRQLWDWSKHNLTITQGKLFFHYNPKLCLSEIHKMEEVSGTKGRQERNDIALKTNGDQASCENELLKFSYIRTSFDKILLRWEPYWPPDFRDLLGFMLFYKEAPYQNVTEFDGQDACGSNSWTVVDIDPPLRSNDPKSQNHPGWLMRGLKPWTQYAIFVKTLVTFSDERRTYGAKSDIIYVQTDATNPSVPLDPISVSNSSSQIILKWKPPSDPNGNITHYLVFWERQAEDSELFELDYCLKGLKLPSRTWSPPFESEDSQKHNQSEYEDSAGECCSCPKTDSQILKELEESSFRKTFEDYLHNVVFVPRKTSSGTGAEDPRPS
UniProt P06213, 763-1382 partner limits assumed: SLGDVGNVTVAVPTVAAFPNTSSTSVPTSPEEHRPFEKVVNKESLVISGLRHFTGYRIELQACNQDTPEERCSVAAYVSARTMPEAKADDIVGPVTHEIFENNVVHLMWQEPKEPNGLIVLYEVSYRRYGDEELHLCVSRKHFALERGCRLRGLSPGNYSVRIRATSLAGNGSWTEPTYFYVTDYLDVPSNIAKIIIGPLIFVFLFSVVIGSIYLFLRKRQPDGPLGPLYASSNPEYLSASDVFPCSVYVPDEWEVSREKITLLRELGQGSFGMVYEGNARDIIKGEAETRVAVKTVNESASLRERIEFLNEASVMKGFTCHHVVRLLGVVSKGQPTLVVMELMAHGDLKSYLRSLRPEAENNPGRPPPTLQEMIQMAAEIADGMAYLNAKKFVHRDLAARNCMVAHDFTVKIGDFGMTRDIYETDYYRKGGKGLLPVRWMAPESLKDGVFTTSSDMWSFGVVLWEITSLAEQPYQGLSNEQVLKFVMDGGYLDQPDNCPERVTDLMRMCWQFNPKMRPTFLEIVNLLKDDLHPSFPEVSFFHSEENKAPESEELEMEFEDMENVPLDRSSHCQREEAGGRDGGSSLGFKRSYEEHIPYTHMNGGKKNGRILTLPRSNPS

As usually defined, the EC50 is the concentration that produces a half-maximal response. Low readings indicate greater potency, high ones weaker potency.

The target in test [1] is T1, human IR-B (Homo sapiens, UniProt P06213). Description: cell-based.
The target of test [2] is T1, human IR-B. Briefly: cell-based. This is another data set of the same source.

Read-outs that look alike come from different tables or passages of the source.

As for `CC[C@H](C)[C@@H]1NC(=O)[C@H](CC(C(=O)O)C(=O)O)NC(=O)[C@H](CO)NC(=O)CNC(=O)[C@@H](NC(=O)[C@H](CCCNC(=N)N)NC(=O)[C@H](Cc2c[nH]cn2)NC(=O)[C@H](CCCCN)NC(=O)[C@@H]2C[C@@H](O)CN2C(=O)[C@@H](NC(=O)[C@H](CC(=O)O)NC(=O)[C@H](Cc2ccccc2)NC(=O)[C@@H](N)[C@@H](C)O)[C@@H](C)O)CSSC[C@@H]2NC(=O)[C@@H](NC(=O)[C@H](Cc3c[nH]cn3)NC(=O)[C@H](CC(C(=O)O)C(=O)O)NC(=O)[C@@H](NC(=O)[C@@H](NC(=O)CN)C(C)C)C(C)C)CSSC[C@H](NC(=O)[C@@H]3CCCN3C(=O)[C@H](CCCNC(=N)N)NC(=O)[C@H](Cc3c[nH]cn3)NC2=O)C(=O)N[C@@H](CO)C(=O)N[C@@H](CC(N)=O)C(=O)N[C@@H](C)C(=O)N[C@@H](CCC(=O)O)C(=O)N[C@@H](Cc2ccccc2)C(=O)N[C@@H](CCCCN)C(=O)N[C@@H](CCCCN)C(=O)N[C@@H](Cc2ccc(O)cc2)C(=O)N[C@H](C(N)=O)CSSC[C@@H](C(=O)N[C@@H](Cc2ccc(O)cc2)C(=O)N[C@@H](CCCNC(=N)N)C(=O)O)NC(=O)[C@H](CC(C)C)NC(=O)[C@H](CC(=O)O)NC(=O)[C@H](CCSC)NC(=O)[C@H](Cc2ccc(O)cc2)NC(=O)[C@H](CO)NC(=O)[C@H](CC(N)=O)NC(=O)[C@H]([C@@H](C)O)NC1=O` [Con-Ins G1], the EC50 in test [1] is 136 nM; in test [2], 16.3 nM.
